Values belong to the compound of their own block, whether it stands above or below them.
Experiments:
[1] = Dissolution test of poorly-soluble substances using distilled water
[2] = Dissolution test of poorly-soluble substances using 2nd fluid for disintegration test (pH 6.8) of the Japanese Pharmacopoeia; assay type: physicochemical

Structure (SMILES): CC[C@H]1OC(=O)[C@H](C)[C@@H](O[C@H]2C[C@@](C)(OC)[C@@H](O)[C@H](C)O2)[C@H](C)[C@@H](O[C@@H]2O[C@H](C)C[C@H](N(C)C)[C@H]2O)[C@](C)(O)C[C@@H](C)C(=O)[C@H](C)[C@@H](O)[C@]1(C)O [compound 28, Erythromycin]
Dissolved amount ([2]; elution time 3 min): 2556.3 µg/mL

Structure (SMILES): O=[N+]([O-])O[C@H]1CO[C@H]2[C@@H]1OC[C@H]2O[N+](=O)[O-] [compound 30, Isosorbide Dinitrate]
Dissolved amount ([1]; water, elution time 3 min): 3465.7 µg/mL
Dissolved amount ([1]; water, elution time 10 min): 3393.1 µg/mL
Dissolved amount ([1]; water, elution time 360 min): 3466.0 µg/mL
Dissolved amount ([2]; elution time 3 min): 7156.8 µg/mL
Dissolved amount ([2]; elution time 120 min): 7236.5 µg/mL

Structure (SMILES): Nc1ncnc2nc[nH]c12 [compound 45, Adenine]
Dissolved amount ([1]; Adenine, water, elution time 120 min): 1657.8 µg/mL

More lines, now with the values ahead:

Dissolved amount ([1]; Dissolution test using water, elution time 3 min): 6770.2 µg/mL
Dissolved amount ([2]; elution time 10 min): 10921.2 µg/mL
Dissolved amount ([2]; elution time 30 min): 11139.3 µg/mL
Structure (SMILES): CN/C(=N/CCSCc1nc[nH]c1C)NC#N [compound 19, Cimetidine]

Dissolved amount ([2]; Gliclazide, elution time 10 min): 206.1 µg/mL
Structure (SMILES): Cc1ccc(S(=O)(=O)NC(=O)NN2CC3CCCC3C2)cc1 (centres unmarked) [compound 32, Gliclazide]
